Source: article PMC6994307 (Current Therapeutic Research, Clinical and Experimental, 2019)

Amino acid sequences for entries named in this document (tags omitted).
UniProt P21554, whole entry: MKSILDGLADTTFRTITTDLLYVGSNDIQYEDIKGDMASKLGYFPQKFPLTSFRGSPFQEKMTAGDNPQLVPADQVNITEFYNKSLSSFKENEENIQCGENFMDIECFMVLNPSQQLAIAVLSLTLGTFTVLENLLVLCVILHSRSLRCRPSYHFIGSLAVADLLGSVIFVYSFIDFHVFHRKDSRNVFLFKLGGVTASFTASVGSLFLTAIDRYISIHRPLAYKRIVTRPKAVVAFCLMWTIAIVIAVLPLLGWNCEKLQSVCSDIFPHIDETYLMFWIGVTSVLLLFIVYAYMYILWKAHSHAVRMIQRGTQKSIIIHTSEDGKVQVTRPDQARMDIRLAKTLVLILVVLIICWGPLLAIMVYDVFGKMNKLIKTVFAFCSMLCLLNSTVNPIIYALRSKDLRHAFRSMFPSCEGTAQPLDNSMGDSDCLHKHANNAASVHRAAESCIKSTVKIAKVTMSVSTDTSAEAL

Target: human CB1 receptor (Homo sapiens, UniProt P21554)
Type: binding

O=C(Nc1ccc(Cl)cc1)Nc1cccc(-c2cccc(N3CCCC3)n2)c1 [PSNCBAM-1, 1-(4-Chlorophenyl)-3-{3-[6-(pyrrolidin-1-yl)pyridin-2-yl]phenyl} urea]
Kb: 0.055 µM
